Target: T1, SLC38A2 (Homo sapiens, UniProt Q96QD8)
T1 construct: expressed in transfected cells; host or cells: HY15549 cells with dox-inducible SNAT2
T1 sequence (Q96QD8 1-506): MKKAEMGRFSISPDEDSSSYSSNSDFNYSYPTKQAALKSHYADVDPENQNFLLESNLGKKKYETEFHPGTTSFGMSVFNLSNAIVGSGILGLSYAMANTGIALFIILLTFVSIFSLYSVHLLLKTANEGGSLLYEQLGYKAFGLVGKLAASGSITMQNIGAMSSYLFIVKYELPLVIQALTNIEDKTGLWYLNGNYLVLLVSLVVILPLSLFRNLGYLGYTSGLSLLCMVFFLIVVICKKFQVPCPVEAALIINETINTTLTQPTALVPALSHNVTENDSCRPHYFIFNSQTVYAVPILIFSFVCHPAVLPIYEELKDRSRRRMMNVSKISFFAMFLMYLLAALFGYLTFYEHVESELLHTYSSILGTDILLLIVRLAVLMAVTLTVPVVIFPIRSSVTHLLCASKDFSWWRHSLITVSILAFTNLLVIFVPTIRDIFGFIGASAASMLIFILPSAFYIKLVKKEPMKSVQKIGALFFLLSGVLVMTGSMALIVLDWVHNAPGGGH
Assay: SLC38A2 activity measured by MeAIB uptake in HY15549 dox-inducible SNAT2 cells
Assay type: cell-based
Settings: 20 μm compound, MeAIB 0.3 mM, 1 hour, vs vehicle (PBS), HY15549 cells expressing dox-inducible SLC38A2/SNAT2
Protocol: (A) Schematic depicting SLC38A2-dependent update of alanine structural analog, methyl α-aminoisobutyrate (MeAIB). […] (B) Total ion chromatogram (TIC) of HY15549 dox-inducible SNAT2 cells treated with 1 mM MeAIB for 24 hours compared to vehicle (PBS). […] HY15549 dox-inducible SNAT2 cells were cultured with a concentration gradient of MeAIB for 15 minutes (gray circles) or 60 minutes (black squares). (D) Western blot depicting SLC38A2 expression relative to doxycycline after 24 hours culture in HY15549 dox-inducible SNAT2 cells. (E) Intracellular MeAIB levels in HY15549 dox-inducible cells cultured with dox (+SNAT2, left bar) and without dox (KO, right bar) for 24 hours with 1 mM MeAIB. (F) Intracellular MeAIB levels in HY15549 dox-inducible cells cultured with vehicle, paroxetine (PXT, 20 μM), or sertraline (SRT, 20 μm) for 24 hours with 300 μM MeAIB.

## CNCCC(Oc1ccc(C(F)(F)F)cc1)c1ccccc1 (racemic) [fluoxetine]
  inhibition of MeAIB uptake (intracellular MeAIB levels): inhibited

Reference: patent publication US20220275376A1, “TARGETING SLC38A2 IN PANCREATIC CANCER” (New York University, priority 2019, published 2022)
